Consider 61 compounds from PubChem BioAssay AID2130 (The Scripps Research Institute Molecular Screening Center, 2009).

The chains behind the UniProt entries cited, without tags or fusion partners.
UniProt Q9Y570, whole entry: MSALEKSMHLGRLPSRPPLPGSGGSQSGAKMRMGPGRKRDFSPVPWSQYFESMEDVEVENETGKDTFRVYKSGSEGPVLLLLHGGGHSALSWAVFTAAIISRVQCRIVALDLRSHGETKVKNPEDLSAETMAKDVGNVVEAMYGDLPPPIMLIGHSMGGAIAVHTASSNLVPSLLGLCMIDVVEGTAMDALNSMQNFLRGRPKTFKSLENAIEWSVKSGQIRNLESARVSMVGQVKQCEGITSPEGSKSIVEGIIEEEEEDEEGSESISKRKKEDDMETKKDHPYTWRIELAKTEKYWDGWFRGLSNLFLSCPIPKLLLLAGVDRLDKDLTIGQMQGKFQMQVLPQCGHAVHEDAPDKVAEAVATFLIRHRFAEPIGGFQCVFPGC

Each structure is given as a SMILES string. Only a part is listed here, and it is no random draw. Active and inactive are the calls of the source.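 Rule for the calls: active = inhibition above the campaign mean of all compounds plus 3 SD (cut at about 26% in these data); inactive = the rest.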

In this assay the target is Protein phosphatase methylesterase 1 (Homo sapiens) (UniProt Q9Y570). Briefly: human PME-1 methylesterase blockers – biochemical, fluorescence polarization, FP-Rh probe, HTS, primary screen (AID 2130).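 Note: competitive labeling of PME-1 active site by serine hydrolase directed probe; 0% = PME-1 with DMSO and 100% = wells lacking PME-1 enzyme; inhibitors block probe labeling so polarization falls and inhibition rises.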 The following applies: recombinant PME-1, FP-Rh probe fluorescence polarization; at 5.9 µM; stronger effect = higher value. On the technique in general: Fluorescence polarisation rises when a labelled molecule tumbles more slowly, as on binding a larger partner.
The term inhibition denotes the change of the read-out against control, counted positive when it falls. In the case of `Cc1cc(C)cc(N(C(=O)c2ccccc2)C2CCN(C(=O)OC(C)(C)C)CC2)c1`, the inhibition is inactive: 1.05%. On to `O=C(NCC1(N2CCCCC2)CCCCC1)c1ccc(Cl)nc1`, for which the inhibition was inactive: -2.19%. Then `O=C(NCC1(N2CCOCC2)CCCCC1)c1cc2ccccc2o1`, with inactive: -2.11%.

With `COc1ccc(Cl)cc1C(=O)NCC1(N2CCOCC2)CCCCC1`, the inhibition was inactive: 2.01%. Consider `N#CC1(Nc2ccccc2)CCN(Cc2ccccc2)CC1`, for which the inhibition is inactive: -4.44%. Then `O=C(NCC1(N2CCCCC2)CCCCC1)c1ccc(Cl)s1`, with inactive: -3.66%; and `O=C(OC1CN2CCC1CC2)C1c2ccccc2Oc2ccccc21` (stereo unspecified), with inactive: -7.82%. Turning to `CCOC(=O)N1CCC(Nc2ccc(OC)cc2)CC1`, the inhibition is inactive: 2.03%. Then `COc1ccc(C(=O)NCC2(N3CCCCC3)CCCCC2)c(OC)c1OC`, with inactive: 0.4%; and `CC(C)(C)OC(=O)N1CCC(N(C(=O)c2ccccc2)c2ccc(F)cc2)CC1`, with inactive: -2.87%.

Regarding `COc1ccc(C(=O)NCC2(N3CCCCC3)CCCCC2)cc1`, the inhibition was inactive: -3.81%. Then `O=C(NCC1(N2CCCCC2)CCCCC1)c1cccs1`, with inactive: 1.06%; and `O=C(NCC1(N2CCCCC2)CCCCC1)c1ccc(=O)[nH]c1`, with inactive: -0.1%; and `CSc1ccccc1C(=O)NCC1(N2CCCCC2)CCCCC1`, with inactive: -6.49%.

As to `Cc1ccc(OCC(C)C)c(CN(CCCl)CCCl)c1`, the inhibition was inactive: 6.62%. In the case of `CCOC(=O)N1CCC(Nc2cccc(C)c2)CC1` it was inactive: 0.18%; in that of `CCOc1ccc(C)cc1CN(CCCl)CCCl`, inactive: 0.53%.

In the case of `COc1ccc(NC2CCN(CCc3ccccc3)CC2)c(OC)c1`, the inhibition was inactive: 3.08%. For `O=C(NCC1(N2CCCCC2)CCCCC1)c1ccc(F)cc1`, the inhibition was inactive: -5%. Then `O=C(NCC1(N2CCCCC2)CCCCC1)c1cccc(C(F)(F)F)c1`, with inactive: -4.45%. In the case of `COc1cc(C(=O)NCC2(N3CCCCC3)CCCCC2)ccc1OC(F)F` it was inactive: -3.99%; in that of `O=C(NCC1(N2CCOCC2)CCCCC1)c1cc(=O)[nH]c2ccccc12`, inactive: -9.96%.

As for `CN1CCN(CCOC(=O)C(O)(c2ccccc2)c2ccccc2)CC1`, the inhibition was inactive: 0.25%. In the case of `COc1ccc(NC2CCN(C(=O)OC(C)(C)C)CC2)cc1` it was inactive: -14.3%; in that of `O=C(NCC1(N2CCCCC2)CCCCC1)c1ccc(OC(F)F)cc1`, inactive: 1.77%. In the case of `N#CC1(Nc2ccccc2)CCN(CCc2ccccc2)CC1` it was inactive: 1.88%. In the case of `CCN1CCC(Nc2ccc(Cl)cc2)CC1` it was inactive: -0.92%; in that of `O=C(NCC1(N2CCCCC2)CCCCC1)c1cccc([N+](=O)[O-])c1`, inactive: 2.87%; in that of `CN1CCC(Nc2cccc(F)c2)CC1`, inactive: 3.1%.

Consider `O=C(NCC1(N2CCCCC2)CCCCC1)c1cncc(Br)c1`, for which the inhibition is inactive: 0.34%. Then `CC(C)c1ccc(NC2CCN(C(=O)OC(C)(C)C)CC2)cc1`, with inactive: 1.87%. Then `CN(C)c1cccc(C(=O)NCC2(N3CCCCC3)CCCCC2)c1`, with inactive: -4.29%. Then `COc1ccc(CN(CCCl)CCCl)cc1Cl`, with inactive: -0.74%; and `COc1cc(OC)c(C(=O)NCC2(N(C)C)CCCCC2)cc1OC`, with inactive: 1.93%; and `CCOC(=O)N1CCC(Nc2ccc(C)cc2)CC1`, with inactive: 0.94%. On to `N/C(=N\O)c1c(N)no[n+]1[O-]`, for which the inhibition was inactive: -6.11%. Then `CCc1cc(C(=O)NCC2(N3CCCCC3)CCCCC2)sc1C`, with inactive: -9.45%; and `O=C(OC1CN2CCC1CC2)C1c2ccccc2C=Cc2ccccc21` (stereo unspecified), with inactive: -5.24%. Then `O=C(NCC1(N2CCOCC2)CCCCC1)c1cc(Br)ccc1Cl`, with inactive: 4.57%; and `COc1ccc(C(=O)NCC2(N3CCOCC3)CCCCC2)cc1OC`, with inactive: 1.1%. Then `CN(C)C1(CNC(=O)c2cccc(C#N)c2)CCCCC1`, with inactive: 0.79%. With `CCCN1CCC(Nc2cc(OC)cc(OC)c2)CC1`, the inhibition is inactive: 4.55%. Then `c1ccc(CN2CCC(Nc3ccccc3)CC2)cc1`, with inactive: 4.42%; and `N#Cc1ccc(C(=O)NCC2(N3CCCCC3)CCCCC2)cc1`, with inactive: -3.18%; and `CC(C)(C)OC(=O)N1CCC(N(C(=O)c2ccccc2)c2ccc(Cl)cc2)CC1`, with inactive: 1.68%. With `CCN1CCC(Nc2cccc(F)c2)CC1`, the inhibition was inactive: -2.44%. In the case of `CN(C)c1ccc(C(=O)NCC2(N3CCCCC3)CCCCC2)cc1` it was inactive: -3.85%; in that of `O=C(NCC1(N2CCCCC2)CCCCC1)c1ccco1`, inactive: -8.15%. In the case of `COc1cc(OC)cc(C(=O)NCC2(N3CCCCC3)CCCCC2)c1` it was inactive: -3.06%. Regarding `Fc1ccccc1NC1CCN(Cc2ccccc2)CC1`, the inhibition was inactive: -2.9%. Then `Cc1ccc(C(=O)NCC2(N3CCCCC3)CCCCC2)o1`, with inactive: -1.69%. For `COc1cc(OC)cc(C(=O)NCC2(N3CCOCC3)CCCCC2)c1`, the inhibition was inactive: 0.24%.

Turning to `COc1cccc(C(=O)N(c2cc(C)cc(C)c2)C2CCN(C(=O)OC(C)(C)C)CC2)c1`, the inhibition is inactive: 4.1%.

Regarding `CCC(CO)(C(=O)OC1CN2CCC1CC2)c1ccccc1` (stereo unspecified), the inhibition was inactive: -1.62%. For the compound `CN1CCC(Nc2ccc(Cl)cc2)CC1`, the inhibition is inactive: 0.75%. As to `CCCOc1ccc(C)cc1CN(CCCl)CCCl`, the inhibition was inactive: -0.55%. In the case of `CN1CCC(Nc2ccc(F)c(Cl)c2)CC1` it was inactive: 4.2%; in that of `CCOc1ncccc1C(=O)NCC1(N2CCOCC2)CCCCC1`, inactive: -1.02%; in that of `O=C(O)C1(Nc2ccccc2)CCN(Cc2ccccc2)CC1`, inactive: -3.22%.

As to `CC(C)(C)OC(=O)N1CCC(Nc2ccccc2)CC1`, the inhibition was inactive: -5.64%.

For the compound `CCCOc1ccc(C(=O)NCC2(N(C)C)CCCCC2)cc1`, the inhibition was inactive: -1.35%.
